## Yeast mating assay 1: variants of the scFv Ab-14

Source: Engelhart et al. 2022 (doi:10.1038/s41597-022-01779-4), MIT Lincoln Laboratory and A-Alpha Bio; data file from the FLAb repository.

Target: peptide PDVDLGDISGINAS, taken from heptad repeat 2 (HR2) of SARS-CoV-2 spike.

Parent scFv Ab-14: VH joined to VL by the linker GGGGSGGGGSGGGGS. Changes lie in the heavy chain CDRs alone.
VH: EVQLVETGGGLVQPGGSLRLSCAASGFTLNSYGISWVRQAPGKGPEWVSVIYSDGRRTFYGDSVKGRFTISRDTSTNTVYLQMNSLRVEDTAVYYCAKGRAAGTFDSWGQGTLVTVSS
VL: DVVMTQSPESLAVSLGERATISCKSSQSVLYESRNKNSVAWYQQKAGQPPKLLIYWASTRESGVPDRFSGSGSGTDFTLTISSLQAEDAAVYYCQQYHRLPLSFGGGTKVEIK

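AAYL49 was designed without a model: most single CDR substitutions and a random sample of double and triple ones. The assay is AlphaSeq: two haploid yeast populations carry antibody and antigen on their surface. Mating (16 h, 30 °C) was followed by selection of diploids and sequencing of their barcodes. Scores were corrected for input abundance and mapped to Kd with protein pairs of known affinity run in the same pool. Each pool was mated in three replicate cultures.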

Changes read parent residue, position, new residue, counted from the first residue of the VH shown.
Values are log10 of the apparent Kd in nM; lower means stronger binding.
Replicates are averaged; those with no signal do not enter the mean.
A pair that was not seen in any replicate is written "nd"; this usually means weak binding, but a binder can also be missed.
Empty control strains, which show no peptide, gave a signal in 15% of pairings with library AAYL49; the median was 4.06 and 95% of these signals were weaker than 2.83. No background was subtracted.

changes	mean, log10 nM	detected
G55V Y60W G61T	nd	0/3
G33D R56Y S107D	5.59	1/3
G33I R56H T104Y	4.93	2/3
I51K Y52K	nd	0/3
Y32K V50Q S63W	nd	0/3
D54K D62A S107P	nd	0/3
S35M G55K D106F	nd	0/3
L29V D62T S107T	2.42	3/3
N30I G33F	nd	0/3
L29G R56G R57H	3.53	1/3
S35W G55H G99W	3.17	2/3
D54V Y60G A102L	3.31	1/3
Y32E R56L R57I	5.97	1/3
N30K I51Y D106M	nd	0/3
V64A T104F F105M	1.27	3/3
S35N R57W	5.08	1/3
A102Y F105V D106V	1.19	3/3
G26I T104E S107N	nd	0/3
T28D F59W D106R	nd	0/3
G26N G61S T104Q	1.83	3/3
K65L G99M F105G	1.56	3/3
L29R G61L S63T	3.21	1/3
G33A D62E S63E	3.04	1/3
G26P F27V S53H	3.44	1/3
F59K V64S	3.65	1/3
T28A R100M T104I	1.28	3/3
T28A G33E I34D	3.66	2/3
G26E Y32Q I34R	5.78	1/3
S31K Y60R G103A	3.65	1/3
T28W S63Q	nd	0/3
F27Q I34V T104K	nd	0/3
L29P S53M D54H	4.10	1/3
S53R D54H T58D	nd	0/3
K65W R100M F105R	2.01	3/3
R57Q V64T S107R	nd	0/3
T28A V64H T104S	nd	0/3
F27A G55W R100A	nd	0/3
T28S V50N R57M	4.55	3/3
L29S Y52D	4.36	2/3
Y60A K65C T104N	nd	0/3
I34W Y52C R100K	nd	0/3
S53R T58G A102G	nd	0/3
Y52C G55S A102S	5.46	1/3
F59N A101H F105D	4.71	2/3
F27M Y32R R57G	nd	0/3
F27C Y32A A102S	nd	0/3
G26C L29A I34V	5.18	1/3
S35E V50Y D106F	5.54	3/3
G26I Y32F F105H	nd	0/3
I34W V50S G99A	3.69	1/3
F27H N30H D62Q	nd	0/3
N30R T58G	nd	0/3
L29E Y60F A101R	5.39	1/3
V50P Y52M A102H	3.85	2/3
V50K T58W A102L	nd	0/3
S53D R57W	3.93	1/3
S35A V50T D54G	nd	0/3
Y32R F59D A102E	nd	0/3
F27H G55P T104E	nd	0/3
I34N D54F F59P	nd	0/3